Test results as given in patent US11401278B2, “Macrocyclic indole derivatives” (The Broad Institute, Inc., priority 2017, dated 2022).

By UniProt entry, the sequences of proteins in these tests, tags left out. Chains listed by the source or under a name are the forms on record and can include a tag or linker. Residues count along the entry.
UniProt P10415, 1-211 with tags or gaps limits assumed: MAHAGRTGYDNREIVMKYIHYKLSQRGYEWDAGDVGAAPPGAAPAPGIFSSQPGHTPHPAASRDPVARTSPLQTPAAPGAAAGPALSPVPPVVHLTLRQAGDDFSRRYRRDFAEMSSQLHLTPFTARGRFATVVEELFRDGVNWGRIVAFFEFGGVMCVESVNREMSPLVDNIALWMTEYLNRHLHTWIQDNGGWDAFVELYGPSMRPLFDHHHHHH

Experiments:
BCL-2 = BCL-2 (Homo sapiens (Human), UniProt P10415); experiment: Protein-protein interaction assay BCL-2/Bad BH3 peptide (BCL-2 assay, TR-FRET); format: binding; settings: read-out: BCL-2 Assay [M] (median) IC50, His-BCL-2 / Bad BH3 peptide
Method: Assay 3 Protein-Protein Interaction Assay: BCL-2/Bad BH3 Peptide (BCL-2 Assay)
The dose-dependent inhibition by the compounds described in this invention of the interaction between BCL-2 and the BH3 domain of Bad (both human) was determined using a steady state binding competition assay with time-resolved fluorescence energy transfer (TR-FRET) readout. […]
In the assay 11 different concentrations of each compound (0.1 nM, 0.33 nM, 1.1 nM, 3.8 nM, 13 nM, 44 nM, 0.15 μM, 0.51 μM, 1.7 μM, 5.9 μM and 20 μM) were typically measured as duplicates in the same microtiter plate. […]
The mixture was incubated in the dark for one hour at 22° C. and then overnight at 4° C. The formation of BCL-2/Bad complexes was determined by measuring the resonance energy transfer of the anti-His-Eu-cryptate antibody to the streptavidin-XL665 present in the reaction. For that purpose, the fluorescence emission at 620 nm and 665 nm after excitation at 330-350 nm was measured in a TR-FRET measuring instrument, for instance a Rubystar or a Pherastar (both from BMG Lab Technologies, Offenburg, Germany) or a Viewlux (Perkin-Elmer). […]

SUDHL10 = experiment: Induction of caspase-3/7 activity (Assay 4), SUDHL10; settings: read-out: Caspase SUDHL10 [M] (median) EC50, caspase-3/7 induction, 3 hours
Method: Cellular Assays Assay 4 Induction of Caspase-3/7 Activity Upon Treatment of Cells with Selected Compounds
The BH3-domain of MCL-1 sequesters pro-apoptotic proteins, thereby inhibiting apoptosis. In contrast, MCL-1 inhibitors are expected to antagonize this effect leading to an increase in apoptosis, which can be determined by measuring the activity of caspase-3/7.
The activity of caspase-3/7 was determined in DLBCL (Diffuse large B-cell lymphoma) cell lines (SUDHL5 and SUDHL10) upon treatment with different compounds, using the Caspase-Glo® 3/7 reagent from Promega (G8092).
The different cell lines were plated in culture medium (RPMI 1640 [GIBCO #22400-089] supplemented with 10% Fetal Bovine Serum) at a density of 3,300 cells in 30 μl/well in a sterile, solid black, flat bottom, polystyrene, TC-treated 384-well microplate (Corning #3571) using Multidrop Combi Reagent Dispenser. […]
On the next day, the cells were treated with compounds (stock solution, 10 mM in DMSO) using the HP D300 Digital Dispenser in a concentration range of 3.3×10e-5 M (33 μM) to 5×10e-9 M (5 nM) in a single-dot curve with at least 16 dilutions and a DMSO concentration of 0.33%. […] Finally, luminescence was read at 0.1 ms, with a gain of 3000 using the PHERAstar FS microplate reader (BMG Labtech).
For the evaluation of the results, the background measured with “medium-only” was subtracted from all other values. […]

In the case of `CCc1c2c(nn1C)CNS(=O)(=O)CCCn1c(C(=O)O)c(CCCOc3cccc4cc(F)ccc34)c3ccc(Cl)c-2c31`, the IC50 (BCL-2) was over 2e-05 M and the EC50 (SUDHL10) was 1.7e-06 M.
